{
  "sequences": {"note": "By UniProt entry, the sequences of proteins in these tests, tags left out. Residues count along the entry.", "UniProt P10997, 34-70": "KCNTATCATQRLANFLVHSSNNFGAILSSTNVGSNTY"},
  "source": "paper PMC9214849",
  "about": "(Chemical Science, 2022)",
  "target": "human islet amyloid polypeptide1-37 (hIAPP) (Homo sapiens, UniProt P10997)",
  "test": "AFM morphology of aggregates, hIAPP",
  "type": "biochemical",
  "details": "pure hIAPP 20 μM, 24 h",
  "summary_of_the_method": "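hIAPP at 20 μM was incubated at 37 °C, alone or with 5–20 μM defensin. AFM images were taken at time points of the ThT kinetics runs, including 24 h and 36 h. Aggregate heights and lengths were measured from the images and reported as maximum, mean and minimum values.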",
  "data": [
    {"compound": "CC[C@H](C)[C@H](NC(=O)[C@H](C)NC(=O)CNC(=O)[C@H](Cc1ccccc1)NC(=O)[C@H](CC(N)=O)NC(=O)[C@H](CC(N)=O)NC(=O)[C@H](CO)NC(=O)[C@H](CO)NC(=O)[C@H](Cc1c[nH]cn1)NC(=O)[C@@H](NC(=O)[C@H](CC(C)C)NC(=O)[C@H](Cc1ccccc1)NC(=O)[C@H](CC(N)=O)NC(=O)[C@H](C)NC(=O)[C@H](CC(C)C)NC(=O)[C@H](CCCNC(=N)N)NC(=O)[C@H](CCC(N)=O)NC(=O)[C@@H](NC(=O)[C@H](C)NC(=O)[C@@H]1CSSC[C@H](NC(=O)[C@@H](N)CCCCN)C(=O)N[C@@H](CC(N)=O)C(=O)N[C@@H]([C@@H](C)O)C(=O)N[C@@H](C)C(=O)N[C@@H]([C@@H](C)O)C(=O)N1)[C@@H](C)O)C(C)C)C(=O)N[C@@H](CC(C)C)C(=O)N[C@@H](CO)C(=O)N[C@@H](CO)C(=O)N[C@H](C(=O)N[C@@H](CC(N)=O)C(=O)N[C@H](C(=O)NCC(=O)N[C@@H](CO)C(=O)N[C@@H](CC(N)=O)C(=O)N[C@H](C(=O)N[C@@H](Cc1ccc(O)cc1)C(N)=O)[C@@H](C)O)C(C)C)[C@@H](C)O", "note": "[hIAPP]", "values": [
      {"measurement": "average height of fibrils", "result": 15, "unit": "nm"},
      {"measurement": "average length of fibrils", "setting": "N up to 40", "result": 483, "unit": "nm"}
    ]}
  ]
}
